Values quoted from earlier work as cited in patent US20040210280A1, “Plaster-type chip systems for thermodynamic control of topical dermal and transdermal systems” (BIONICS PHARMA GmbH, priority 2002, published 2004).

Conditions: healthy persons, after subcutaneous injection, relation to skin temperature

For insulin, the “magnitude of the insulin concentration in the serum” value is given as “significantly statistically correlated with the skin temperature”.
